# This is a selection; strong and weak results do not stand in their true shares. Calls of active or inactive are those of the source.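 The calls were made as follows: active = percent inhibition above its own plate's cutoff, namely the mean of that plate's compound wells plus 3 SD; inactive = the rest.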
# Chains of the proteins cited; added tags and fusions are not shown.
# UniProt P11229, whole entry: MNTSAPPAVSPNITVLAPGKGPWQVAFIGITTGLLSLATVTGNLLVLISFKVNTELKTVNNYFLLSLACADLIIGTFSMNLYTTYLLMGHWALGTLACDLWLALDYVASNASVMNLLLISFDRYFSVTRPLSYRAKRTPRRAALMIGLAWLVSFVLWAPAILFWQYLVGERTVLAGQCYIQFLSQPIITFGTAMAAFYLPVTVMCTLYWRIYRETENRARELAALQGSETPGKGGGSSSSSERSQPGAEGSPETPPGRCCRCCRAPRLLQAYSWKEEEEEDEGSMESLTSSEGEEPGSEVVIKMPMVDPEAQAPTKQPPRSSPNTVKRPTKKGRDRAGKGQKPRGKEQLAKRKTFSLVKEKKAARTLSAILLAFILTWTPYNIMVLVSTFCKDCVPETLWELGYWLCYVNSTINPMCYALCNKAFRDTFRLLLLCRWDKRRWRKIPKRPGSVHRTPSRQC
# Biological target: Muscarinic acetylcholine receptor M1 (Homo sapiens) (UniProt P11229)
# Assay: human M1 muscarinic receptor antagonists, primary screen, CHO-K1 cells, Fluo-8 calcium fluorescence, 1536-well (AID 588852);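 also: peak over basal fluorescence ratio during 140 s after agonist addition; 0% = ACh EC80 plus DMSO and 100% = DMSO alone without agonist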
# Settings: CHO-K1 hM1, Fluo-8 calcium fluorescence, ACh EC80 antagonist; at 3 µM; active compounds read high
row,Compound,inhibition
1,CC1=NCCc2c1[nH]c1ccccc21.O=[N+]([O-])c1cc([N+](=O)[O-])c(O)c([N+](=O)[O-])c1,inactive: 5.81%
2,O=C(O)c1cccc(Nc2c([N+](=O)[O-])cc([N+](=O)[O-])cc2[N+](=O)[O-])c1,inactive: -10.5%
3,CP(=O)(Nc1cccc(Br)c1)Oc1ccccc1 (centres undefined),inactive: -4.84%
4,Cc1cc(C)cc(OP(C)(=O)Nc2ccccn2)c1 (centres undefined),inactive: 12.5%
5,Cc1ccc(C)c(NP(C)(=O)Oc2ccccc2)c1 (centres undefined),inactive: -30%
6,O=C(OC1CN2CCC1CC2)c1ccc(Cl)cc1 (centres undefined),active: 64.2%
7,COc1ccccc1OP(C)(=O)Nc1cccc(Br)c1 (centres undefined),inactive: -9.68%
8,COc1cc(C(=O)NCC2(N3CCOCC3)CCCCC2)cc(Cl)c1OC(C)C,inactive: 13.4%
9,Cc1cc(C)cc(OP(C)(=O)Nc2ccc(C)cc2C)c1 (centres undefined),inactive: -4.52%
10,CCOC(=O)c1ccc(NP(C)(=O)Oc2cc(C)cc(C)c2)cc1 (centres undefined),inactive: 9.04%
11,O=[N+]([O-])c1cc([N+](=O)[O-])c(-c2cnn(-c3ccccc3)c2)c([N+](=O)[O-])c1,inactive: 15.7%
12,Cc1nc2ccc3ccccc3c2s1.O=[N+]([O-])c1cc([N+](=O)[O-])c(O)c([N+](=O)[O-])c1,inactive: 9.31%
13,O=[N+]([O-])c1cc([N+](=O)[O-])c(-n2nnc3ccccc32)c([N+](=O)[O-])c1,inactive: -4.71%
14,CN(Cc1cccnc1)C(=O)COc1ccc(Cl)c(Cl)c1.O=[N+]([O-])c1cc([N+](=O)[O-])c(O)c([N+](=O)[O-])c1,inactive: -11.3%
15,COc1ccccc1OP(C)(=O)Nc1c(C)cccc1C (centres undefined),inactive: -6.12%
16,CP(=O)(Nc1ccc(SC(F)(F)F)cc1)Oc1ccccc1 (centres undefined),inactive: 11.7%
17,CCCOc1ccc(NP(C)(=O)Oc2ccc(Cl)cc2)cc1 (centres undefined),inactive: -2.27%
18,CCOC(=O)C(CC)C1=NC(C)(C)Cc2ccccc21.O=[N+]([O-])c1cc([N+](=O)[O-])c(O)c([N+](=O)[O-])c1 (centres undefined),inactive: -2.21%
19,O=[N+]([O-])c1cc([N+](=O)[O-])c(Nc2nnnn2CCO)c([N+](=O)[O-])c1,inactive: -6.87%
20,CC1=C2N=C(C=C3N=C(C(C)=C4[N-][C@@](C)([C@@H]5N=C1[C@](C)(CCC(=O)NC[C@@H](C)OP(=O)([O-])O[C@H]1[C@@H](O)[C@@H](n6cnc7cc(C)c(C)cc76)O[C@@H]1CO)[C@H]5CC(N)=O)[C@@](C)(CC(N)=O)[C@@H]4CCC(N)=O)[C@@](C)(CC(N)=O)[C@@H]3CCC(N)=O)C(C)(C)[C@@H]2CCC(N)=O.[C-]#N.[Co+3],inactive: -20.8%
21,CN(C)C1(CNC(=O)c2ccc(S(C)(=O)=O)cc2)CCCCC1,inactive: -7.79%
22,CP(=S)(Nn1cnnc1)Oc1ccccc1 (centres undefined),inactive: -4.78%
23,COc1ccccc1OP(C)(=O)Nc1ccccc1 (centres undefined),inactive: -14.3%
24,CP(=O)(Nc1ccccc1Br)Oc1ccccc1 (centres undefined),inactive: -6.76%
25,CCCCOc1ccc(C(=O)NCC2(N3CCCCC3)CCCCC2)cc1OC,inactive: -13.1%

row,Compound,inhibition
1,CCOP(C)(=S)SCC(=O)NC(C)C(=O)O (centres undefined),inactive: 1.91%
2,O=[N+]([O-])c1cc([N+](=O)[O-])c(O)c([N+](=O)[O-])c1.c1ccc(Oc2ccncc2)cc1,inactive: -4.94%
3,CCOC(=O)c1ccc(NP(C)(=O)Oc2ccc(OC)cc2)cc1 (centres undefined),inactive: 1.99%
4,CP(=O)(Nc1ccccn1)Oc1ccc(Cl)cc1 (centres undefined),inactive: -3.74%
5,CP(=O)(Oc1ccccc1)OC(c1ccccc1)C(F)(F)F (centres undefined),inactive: 8.88%
6,CP(=O)(Nc1ccc(SC(F)(F)F)cc1)Oc1ccc(Cl)cc1 (centres undefined),inactive: 0.65%
7,Cc1cccc(C)c1OP(C)(=O)Nc1ccc(SC(F)(F)F)cc1 (centres undefined),inactive: -6.79%
8,Cc1ccc(Nc2c([N+](=O)[O-])cc([N+](=O)[O-])cc2[N+](=O)[O-])cc1,inactive: -15.5%
9,Cc1cc(C)cc(OP(C)(=O)Nc2ccc(SC(F)(F)F)cc2)c1 (centres undefined),inactive: -8.39%
10,CCc1ccc(OP(C)(=O)N2CCN(c3ccc([N+](=O)[O-])cc3)CC2)cc1 (centres undefined),inactive: 12.4%
11,CP(=O)(NC(=O)Nc1ccccc1)Oc1ccccc1 (centres undefined),inactive: 12.5%
12,O=C(COc1ccccc1)OC1CN2CCC1CC2 (centres undefined),active: 55.1%
13,O=C(OC1CN2CCC1CC2)C12CC3CC(CC(C3)C1)C2 (centres undefined),active: 99%
14,CCOC(=O)c1ccc(NP(C)(=O)Oc2ccccc2)cc1 (centres undefined),inactive: -14.5%
15,Cc1ccc(NP(C)(=O)Oc2ccccc2)c(C)c1 (centres undefined),inactive: -31.6%
16,COc1ccccc1OP(C)(=O)Nc1ccc(C)cc1 (centres undefined),inactive: -20.7%
17,COc1ccc(OP(C)(=O)Nc2cccc(F)c2)cc1 (centres undefined),inactive: 2.57%
18,COc1ccccc1OP(C)(=O)Nc1cc(Cl)ccc1C (centres undefined),inactive: 1.51%
19,Cc1cc(C)cc(OP(C)(N)=O)c1 (centres undefined),inactive: 3.65%
20,O=[N+]([O-])c1cc([N+](=O)[O-])c(Nc2cccnc2)c([N+](=O)[O-])c1,inactive: 12.9%
21,COc1cc(C(=O)NCC2(N3CCOCC3)CCCCC2)ccc1OCC(C)C,inactive: -12%
22,Cc1cccc(C)c1OP(C)(N)=O (centres undefined),inactive: -0.68%
23,CC(C)(C)c1ccc(OP(C)(=O)Nc2ccc(SC(F)(F)F)cc2)cc1 (centres undefined),inactive: 2.82%
24,O=[N+]([O-])c1ccc2c(c1)C=Nc1ccccc1O2,inactive: 4.48%
